Laboratory results taken from PubChem BioAssay AID687016 (The Scripps Research Institute Molecular Screening Center, 2013).
The entries are a selection whose mix differs from that of the whole data set. Activity calls are given as the source filed them. Cut-off read from the data, not from the text of the source: active = inhibition above about 21%; inactive = the rest.

Sequences of proteins named here, by UniProt entry; tags and fusion partners are left off. A change or cut given only in a name is not applied to a line headed by its entry.
UniProt Q96T88: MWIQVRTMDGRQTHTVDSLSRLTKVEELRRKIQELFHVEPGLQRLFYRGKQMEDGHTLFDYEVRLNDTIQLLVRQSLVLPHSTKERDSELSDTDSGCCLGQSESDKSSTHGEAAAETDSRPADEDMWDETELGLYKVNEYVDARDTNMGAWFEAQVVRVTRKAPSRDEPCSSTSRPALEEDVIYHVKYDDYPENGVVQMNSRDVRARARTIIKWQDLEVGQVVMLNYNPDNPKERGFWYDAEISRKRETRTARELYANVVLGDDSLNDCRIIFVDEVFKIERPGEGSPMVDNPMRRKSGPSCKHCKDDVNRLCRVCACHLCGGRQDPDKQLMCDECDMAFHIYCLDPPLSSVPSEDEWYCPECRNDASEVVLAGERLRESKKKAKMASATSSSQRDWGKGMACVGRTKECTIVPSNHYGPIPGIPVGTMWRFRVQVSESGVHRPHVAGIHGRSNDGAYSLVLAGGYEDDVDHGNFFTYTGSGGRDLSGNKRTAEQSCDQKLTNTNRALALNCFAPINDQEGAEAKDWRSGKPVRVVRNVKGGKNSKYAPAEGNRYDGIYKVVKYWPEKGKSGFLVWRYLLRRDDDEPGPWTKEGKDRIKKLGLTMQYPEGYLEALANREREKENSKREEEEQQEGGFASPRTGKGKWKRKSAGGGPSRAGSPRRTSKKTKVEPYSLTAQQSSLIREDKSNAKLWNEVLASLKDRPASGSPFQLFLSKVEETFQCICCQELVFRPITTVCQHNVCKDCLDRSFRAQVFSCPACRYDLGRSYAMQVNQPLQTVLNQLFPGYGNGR

What follows are molecules tested against E3 ubiquitin-protein ligase UHRF1 (Homo sapiens) (UniProt Q96T88) (assay: UHRF1 methylated DNA binding inhibitors, primary screen, counter-screen for MBD2 inhibitor project, biochemical, TR-FRET, human UHRF1, single concentration (AID 687016;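 note: UHRF1 SRA domain binding a hemimethylated CpG hairpin DNA probe; 0% = median of test compound wells and 100% = reference inhibitor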)). Conditions: UHRF1 binding to methylated oligo, at 4.4 µM, active compounds read high.

Structure (SMILES)	inhibition
COc1cc(C(=O)NCC2(N3CCOCC3)CCCCC2)ccc1OCC(C)C	inactive: 9.52%
O=[N+]([O-])c1ccc(-c2cc([N+](=O)[O-])c(O)c([N+](=O)[O-])c2)cc1	inactive: -8.96%
O=[As](O)(c1ccc(O)cc1)c1ccccc1O	inactive: 2.13%
C[As](=O)(O)c1cccc(C(=O)O)c1	inactive: 1.35%
Cc1ccc(OP(=O)(Nc2ccc([N+](=O)[O-])cn2)Oc2ccc(C)cc2)cc1	active: 25.1%
[N-]=[N+]=NC1CCCCC1NC(=O)c1cc([N+](=O)[O-])cc([N+](=O)[O-])c1 (stereo not given)	inactive: -4.4%
Cc1ccc2nc3c(c(C)c2c1)CC(C(Cl)Cl)S3 (stereo not given)	inactive: 1.33%
NC(=O)Nc1ccc([As](=O)(O)O)cc1	inactive: -1.92%
CCOP1(=S)c2c(C)nn(CCC#N)c2N=C(c2ccc(F)cc2)N1C (stereo not given)	inactive: -0.82%
CN(C(=O)Cc1ccccc1)[C@@H]1CC[C@]2(CCCO2)C[C@H]1N1CCCC1	inactive: 1.17%
N#CCCN(C(=O)COC(=O)C(O)(c1ccccc1)c1ccccc1)c1ccc(F)cc1	inactive: -1.2%
CN(C(=O)Cc1ccc(Cl)c(Cl)c1)[C@H]1CC[C@@]2(CCCO2)C[C@@H]1N1CCCC1	inactive: -0.27%
CN(C)C(=O)c1cc([N+](=O)[O-])cc2c1-c1c(cc([N+](=O)[O-])cc1[N+](=O)[O-])C2=O	inactive: -7.2%
O=[N+]([O-])c1ccc2c(c1)nnn2O	inactive: 2.47%
O=P(Nc1nccs1)(Oc1ccccc1)Oc1ccccc1	inactive: -1.13%
CCOP1(=S)c2c(C)nn(CCC#N)c2N=C(c2ccccc2F)N1C (stereo not given)	inactive: 0.99%
O=C(O)COc1ccc([As](=O)(O)O)cc1[N+](=O)[O-]	active: 40.2%
Nc1ccccc1[As](=O)(O)c1ccccc1	inactive: -0.44%
Nc1cccc2c([As](=O)(O)O)cccc12	inactive: 19.1%
Cc1ccc(NCCc2c([N+](=O)[O-])cc([N+](=O)[O-])cc2[N+](=O)[O-])cc1	inactive: -7.73%
CCCOP(=S)(Nc1nc(N)cc(=O)[nH]1)OCCC	inactive: 6.97%
CCOP(=O)(Nc1cccc2ccccc12)OCC	inactive: -0.34%
COc1cc(C2NCCC3(OCCO3)C2(C)C)cc(OC)c1OC (stereo not given)	inactive: -2.22%
O=C(OC1CN2CCC1CC2)c1ccc(Cl)cc1 (stereo not given)	inactive: 3.43%
CS(=O)(=O)c1ccc(Cl)c(NC(=O)COC(=O)C(O)(c2ccccc2)c2ccccc2)c1	inactive: 2.2%
COc1cc(C(=O)NCC2(N3CCOCC3)CCCCC2)cc(Cl)c1OC(C)C	inactive: 7.97%
O=[As](O)(O)c1cccnc1	inactive: -2.21%
O=[As](O)(c1cccc(O)c1)c1cccc(O)c1	inactive: -1.96%

Structure (SMILES)	inhibition
Cc1cccc(OCC(=O)OC2CN3CCC2CC3)c1 (stereo not given)	inactive: -1.77%
COc1ccccc1CNC(=O)COC(=O)C(O)(c1ccccc1)c1ccccc1	inactive: 0.79%
CN(C(=O)Cc1ccc(Cl)c(Cl)c1)C1CCCC[C@@H]1N1CCCC1 (stereo not given in full)	inactive: 1.02%
CN(C(=O)Cc1ccc(Cl)c(Cl)c1)[C@@H]1CCCC[C@H]1N1CCCC1	inactive: 1.49%
CC(C)/C=N\N=C(\N)N[N+](=O)[O-]	inactive: -1.72%
CC1(CBr)Cn2c(nc3ccccc3c2=O)S1 (stereo not given)	inactive: 0.29%
CCOP(=O)(NC(=NC(C)c1ccccc1)NC(C)c1ccccc1)OCC (stereo not given)	inactive: -2.02%
CCC1=CC2Cc3nc4ccc(Cl)cc4c(N)c3C(C1)C2 (stereo not given)	inactive: -1.84%
O=P1(Nc2ccccn2)COc2ccccc2OC1	inactive: 0.24%
CN(CCCl)Cc1cc(Cl)c(NC2=NCCN2)c(Cl)c1	inactive: -3.5%
CCOP(=O)(Nc1ccc(C)cn1)OCC	inactive: 0.9%
CC(C)(C)C(=O)NC(Sc1ncccn1)C(Cl)(Cl)Cl (stereo not given)	inactive: 2.6%
Clc1n[nH]nc1-c1nn[nH][15n]1	inactive: 1.14%
O=P1(N(CCCl)CCCl)NCCC(C(F)(F)F)O1 (stereo not given)	inactive: -0.1%
Cc1ccc(S(=O)(=O)N(CCCN)CCCc2c(C)nc(N)[nH]c2=O)cc1	inactive: -1.61%
O=P1(Nc2ncccn2)COc2ccccc2OC1	inactive: 2.75%
Nc1cccc([As](=O)(O)c2ccccc2)c1	inactive: -0.93%
NS(=O)(=O)c1cccc(NC(=O)COC(=O)C(O)(c2ccccc2)c2ccccc2)c1	inactive: -0.66%
O=P1(Nc2ccc(Br)cn2)COc2ccccc2OC1	inactive: -4.38%
O=[As](O)(c1cccs1)c1cccs1	inactive: 0.29%
Cc1ccc(OCC(=O)OC2CN3CCC2CC3)cc1 (stereo not given)	inactive: 13.4%
Cc1ccc(C(=O)OC2CN3CCC2CC3)cc1 (stereo not given)	inactive: 1.56%
CC1CCC(C(C)C)C(OP(=O)(Nc2ccccn2)c2ccccc2)C1 (stereo not given)	inactive: 0.88%
Cc1nn(-c2ccccc2)c2c1P(=O)(N1CCOCC1)N(C)C(c1ccccc1)=N2 (stereo not given)	inactive: 1.71%
CN(C)C1(CNC(=O)c2ccc(S(C)(=O)=O)cc2)CCCCC1	inactive: 4.69%
CCCC1OP(=O)(Nc2ccccc2)OCC1CC (stereo not given)	inactive: 1.12%
O=C(/C=C/c1ccccc1)OC1CN2CCC1CC2 (stereo not given)	inactive: -2.1%
